System: mice
Details: mouse, in vivo, iv, 125 mg/kg

`NC[C@@H]1CC[C@@H](N)[C@@H](O[C@H]2[C@H](O)[C@@H](O[C@H]3O[C@H](CO)[C@@H](O)[C@H](N)[C@H]3O)[C@H](N)C[C@@H]2N)O1` [DKB, Dibekacin, reference compound] was tested, and the “lethality, acute toxicity test” value was “killed all the mice tested”.

Source: patent US4209511A, “Aminoglycoside antibiotics and process for production thereof” (Yamanouchi Pharmaceutical Co., Ltd., priority 1978, dated 1980)
